According to US20110009335A1, “Anticancer Treatments” (priority 2008, published 2011):

Tests used:
[1] = system: CAKI-1 human renal tumor xenograft; experiment: Aplidine with sorafenib, CAKI-1 xenograft in athymic nude mice (Example 1); type: in vivo
Experimental: (§1) Female athymic nude mice (Harlan Sprague Dawley, Madison, Wis.) were utilized for all experiments. Mice were implanted with tumor fragments or a cell suspension when mice were 5 weeks of age. Animals were housed in ventilated rack caging, 5 mice per cage, with food and water ad libitum. The mice were acclimated for 1 week prior to being implanted with tumor fragments or cell suspensions.
Tumor measurements were determined by using Vernier calipers. The formula to calculate volume for a prolate ellipsoid was used to estimate tumor volume (mm^3) from 2-dimensional tumor measurements: Tumor volume (mm^3)=[L×W^2]÷2, where L is the length and it is the longest diameter in mm, and W is the width and it is the shortest diameter in mm of a tumor. Assuming unit density, volume was converted to weight (i.e., 1 mm^3=1 mg).
Body weights were recorded on treatment days and when tumor sizes were measured. In those days wherein the two drugs were administered the same day, the combination therapy groups were treated by co-administering the two drugs at the same time, with no attempt to sequence the treatments.
Aplidine was provided in the form of vials of lyophilized aplidine powder which was reconstituted in Cremophor EL/ethanol/water (CEW) 15/15/70 to a concentration of 0.5 mg/ml. […]
(§2) Tumor size measurements were recorded twice weekly from the treatment initiation until the termination of the study.
(§3) Mean, standard deviation and standard error of the mean were determined for tumor volume for all animal groups at all assessments. […]
Determine the % of tumor growth inhibition, as 100−% T/C, for each of the drugs administered as monotherapy at the doses used in the combinations. % T/C was obtained by comparing the mean tumor weight in the treatment groups (T) to the mean tumor weight in the control group (C) (T/C×100%). • 2. […] This “expected response” was subtracted from the % of tumor growth inhibition determined for the combination therapy group: • a. […] If the resulting number was close to zero, the effect of combining the two drugs was determined as additive. • c.

[2] = system: A498 human renal tumor xenograft; experiment: Aplidine with sorafenib, A498 xenograft in athymic nude mice (Example 1); type: in vivo
Experimental: as §1
A498 cells were grown in MEM, 2 mM L-glutamine and 10% FBS. Cells from in vitro passage 4-20 were implanted SC into study mice: 5×10^6 cells/mouse in 0.2 ml 50% Matrigel/50% medium without antibiotics or serum, using a 23 G needle and 1 cc syringe. Matrigel is a biological extracellular matrix that is liquid at 4° C. and solid at 37° C., and it promotes tumor growth by maintaining the cells in close association in a localized area. Bacterial cultures were performed on aliquots of the cells prepared for implantation.
Tumor measurements were determined by using Vernier calipers. […]
Body weights were recorded on treatment days and when tumor sizes were measured. […]
as §2, §3

Structure (SMILES): CNC(=O)c1cc(Oc2ccc(NC(=O)Nc3ccc(Cl)c(C(F)(F)F)c3)cc2)ccn1 [sorafenib]
- antitumor activity as single agent (monotherapy) ([1]; doses and schedules tested): inactive
- % Inhibition G5 ([1]; sorafenib 30 mg/kg/day, one value per day, days 13-49): 2.0%
- % Inhibition G4 ([1]; sorafenib 60 mg/kg/day, one value per day, days 13-49): −10.2%
- antitumor activity as single agent (monotherapy) ([2]; doses and schedules tested): did not reach the NCI criteria for activity
- % Inhibition G5 ([2]; sorafenib 30 mg/kg/day, one value per day, days 26-61): 1.3%
